Results on one compound are retold here after US20030176689A1, “Inhibitors of hepatitis C virus protease” (priority 2001, published 2003).

Protein sequences, listed by entry. Tags and fused reporters are not part of them. Residues count along the entry.
UniProt P27958, 1027-1208: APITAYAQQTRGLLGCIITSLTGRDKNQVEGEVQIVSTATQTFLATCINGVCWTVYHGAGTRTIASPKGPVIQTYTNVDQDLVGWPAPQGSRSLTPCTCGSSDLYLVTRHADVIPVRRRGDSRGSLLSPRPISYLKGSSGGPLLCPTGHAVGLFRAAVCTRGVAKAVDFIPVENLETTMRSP
UniProt P27958, 1027-1207: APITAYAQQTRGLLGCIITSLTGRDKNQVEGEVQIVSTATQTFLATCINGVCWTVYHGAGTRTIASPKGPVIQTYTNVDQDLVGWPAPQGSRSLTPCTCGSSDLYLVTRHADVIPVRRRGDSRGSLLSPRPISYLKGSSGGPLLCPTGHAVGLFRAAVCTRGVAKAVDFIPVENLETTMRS

One experiment addresses T1, HCV NS3 protease domain (Hepatitis C virus genotype 1a, UniProt P27958).
T1 construct: immobilization of the NS3 protease domain on streptavidin coated beads; made in house; host or cells: E. coli
In words: FAC-MS (frontal affinity chromatography with in-line MS) binding to immobilized NS3. From the text:
An assay using frontal affinity chromatography (FAC) with an in-line mass spectrometer (MS) as described by Schriemer et al. 1998 Agnew. Chem. Int. Ed. 37, 3383-3387 (referred to as FAC-MS) was adapted to identify NS3 protease inhibitors. Briefly, a HCV NS3 protease domain was cloned into a site in a vector that allows for the recombinant NS3 protein to be biotinylated when expressed in E. coli. This provides for immobilization of the NS3 protease domain on streptavidin coated beads which are packed into a miniaturized column. The column is connected in-line to a mass spectrometer. This arrangement facilitates assaying combinatorial compounds individually from a library of peptides for activity in binding the immobilized NS3 protease domain. As the library is continually infused through the column, each compound produces a sigmoidal curve as its elution profile.
The inventors first examined the ability of mutant NS4A peptides to bind to NS3 using the FAC-MS assay described in Example 1. The sequence of the peptides described here is described by the wild-type residue modified, the position of the residue in the wildtype NS4A polypeptide, and the residue substituted at that position. […] “Pen” refers to Penacillamine; “chA” refers to β-cyclohexylalanine; “t” refers to “tert” (so that, for example, “t-L” refers to tert-leucine. […]

For a further experiment, the target named is NS3 protease (Hepatitis C virus genotype 1a, UniProt P27958). Description: Rates of NS3 in the presence of short NS4A peptides. Format: biochemical, HCV. The note with it: substrate 5A-pNA subsaturating; 66 to 360 μM peptide. How it is done:
The ability of the short peptides to activate the NS3 protease was tested at several concentrations between 66 and 360 μM peptide. The concentration of substrate 5A-pNA was subsaturating.

As for `CC[C@H](C)[C@H](NC(=O)[C@H](CCCNC(=N)N)NC(=O)CN)C(=O)N[C@H](C(=O)N[C@@H](CC(C)C)C(=O)O)C(C)C` [GRIVL], at HCV NS3 protease domain, binding was characterised by a dissociation constant (Kd) of 178 µM. The Rate on NS3 protease is 1.76 µmol/min/mg.
